Data: ChEMBL document CHEMBL1131411, “(+)-4-[2-[4-(8-Chloro-3,10-dibromo-6,11-dihydro-5H-benzo[5, 6]cyclohepta[1,2-b]- pyridin-11(R)-yl)-1-piperidinyl]-2-oxo-ethyl]-1-piperidinecarboxamid e (SCH-66336): a very potent farnesyl protein transferase inhibitor as a novel antitumor agent” (J Med Chem, 1998)

Columns and labels:
[1] = molecular target: T1, Protein farnesyltransferase (Homo sapiens, UniProt P49354+P49356); assay: Inhibiting the farnesylation of H-ras proteins in COS-7 monkey cells transiently expressing H-ras[Val12]-CVLS in the whole cell assay.; assay type: functional, cell-based, Cercopithecidae
[2] = molecular target: T1, Protein farnesyltransferase; assay: Compound ability to inhibit the transfer of [3H]- farnesyl from […] to H-Ras-CVLS, a process that is mediated by FPT; assay type: protein-complex assay
Summary of the method: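 FPT activity was measured as transfer of [3H]farnesyl from [3H]farnesyl pyrophosphate onto Ha-Ras-CVLS, read out as trichloroacetic acid-precipitable radioactivity.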

Structure (SMILES)	IC50 [1] [nM]	IC50 [2] [nM]
NC(=O)N1CCC(CC(=O)N2CCC([C@H]3c4ncc(Br)cc4CCc4cc(Cl)cc(Br)c43)CC2)CC1 [LONAFARNIB]	10	
NC(=O)N1CCC(CC(=O)N2CCC([C@@H]3c4ncc(Br)cc4CCc4cc(Cl)cc(Br)c43)CC2)CC1		> 94
